Measurements from patent US20260232826A1, “ANTIBODY-DRUG CONJUGATES AND THEIR USES” (Mablink Bioscience, priority 2022, published 2026).

Amino acid sequences for entries named in this document (tags omitted). Residues count along the entry.
UniProt P15328, 25-234: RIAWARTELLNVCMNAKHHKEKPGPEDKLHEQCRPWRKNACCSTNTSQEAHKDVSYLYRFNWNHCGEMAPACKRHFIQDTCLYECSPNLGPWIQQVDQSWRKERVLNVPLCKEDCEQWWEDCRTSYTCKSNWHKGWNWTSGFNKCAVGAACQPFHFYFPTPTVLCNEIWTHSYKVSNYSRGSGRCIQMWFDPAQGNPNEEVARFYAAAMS

Key:
[1] = molecular target: T1, recombinant human FRα protein (Homo sapiens, UniProt P15328); test: Recombinant FRα-binding affinity by ELISA (human); settings: FIG. 4A/4B
T1 construct: purchased Sino Biological 11241-H08H
Procedure: Sandwich ELISA assays are performed using 96-well high-binding ELISA plates (Corning Inc., New York, NY, USA, Cat #3590). Plates are coated using 100 µL/well of recombinant human FRα protein (Sino Biological cat #11241-H08H) in PBS (pH 7.4) at 2 μg/mL and incubated overnight at 4° C. After 2 washes with PBS-T (PBS+0.05% Tween-20), the plates are blocked with 200 μL/well of incubation buffer (PBS-T+0.1% BSA) for 1 h at room temperature. The plates are washed 4 times with PBS-T, and 100 μL of a threefold dilution series of tested compound (antibody or antibody-drug conjugate) is added. Then, the plates are incubated for 2 h at room temperature in the dark. After 5 washes with PBS-T, plates are incubated 1 h at room temperature with 100 μL/well of a goat anti-human IgG (H+L) HRP conjugated antibody (Jackson Immunoresearch cat #109-035-088), previously diluted 1:250000 in incubation buffer. […] Peroxidase activity is stopped with 0.18M H2SO4 and absorbance is read at 450 nm (reference wavelength 650 nm) using a Thermo Scientific MultiSkan EX microplate reader. […]
Sandwich ELISA assays were performed using 96-well high-binding ELISA plates (Corning Inc., New York, NY, USA, Cat #3590). […] Peroxidase activity was stopped with 0.18M H2SO4 and absorbance was read at 450 nm (reference wavelength 650 nm) using a Thermo Scientific MultiSkan EX microplate reader. […]

SW-620 cancer model = test: In vivo efficacy, SW-620 xenograft; design: species or system SCID mice
From the text: (§1) Four to five-week-old female CB-17 severe combined immunodeficient (SCID) mice are obtained and quarantined for 7 days prior to study initiation. Mice are inoculated subcutaneously with cells (5-10×10^6 cells per mouse) resuspended in PBS (OV-90, SW-620, KB, BT-474 cell lines) or 50% BD Matrigel (Corning®) in PBS (PA-1, IGROV-1, OVCAR-3, NCI-H2110 cell lines). When average tumor volume reached about 120-150 mm^3 mice are randomized (typically 7 mice per group) and treated by a single (unless stated otherwise) intravenous injection of PBS (negative control) or investigated antibody-drug conjugate. Tumor volumes are measured every 3-5 days using a caliper device (length×width) and calculated using the following formula V=4/3×π×R3, where R represents the radius. Mice are sacrificed when the tumor volume exceeded 1500 mm^3 or in case of ulceration of the tumor.
as §1, with “were” for “are”, “obtained from Janvier labs (Le Genest-Saint-Isle, France)” for “obtained”, “V=4/3×π×R^3,” for “V=4/3×π×R3,”

KB cancer model = test: In vivo efficacy, KB xenograft; design: species or system SCID mice; settings: IV once at 3, 6 and 12 mg/kg; NEG-VA-EXA 12 mg/kg (FIG. 13)
From the text: as §1
as §1, with “were” for “are”, “obtained from Janvier labs (Le Genest-Saint-Isle, France)” for “obtained”, “V=4/3×π×R^3,” for “V=4/3×π×R3,”

[2] = tested on: folate receptor alpha negative (FRα neg) BT-474 breast cancer model; test: In vivo efficacy, FRα negative BT-474 xenograft; design: species or system SCID mice; settings: IV once at 5 and 10 mg/kg (FIG. 17)
[3] = Mice tolerability experiment (SCID mice); assay type: in vivo
Procedure: To assess mice preclinical therapeutic index, mouse tolerability experiments were performed with F-VA-EXA, F-LALA-VA-EXA and M-SORAV conjugates. […] Mice were carefully monitored for weight loss or apparent signs of toxicity over the course of 21 days.

cancer xenograft models = test: In vivo xenografts experiments overall (effective dose range); design: species or system SCID mice; settings: Table 10
From the text: as §1
as §1, with “were” for “are”, “obtained from Janvier labs (Le Genest-Saint-Isle, France)” for “obtained”, “V=4/3×π×R^3,” for “V=4/3×π×R3,”

[4] = molecular target: T2, recombinant human folate receptor alpha protein (Homo sapiens, UniProt P15328); test: kd (1/s)
T2 construct: purchased Sino Biological 11241-H08H
From the text: Table printed on a drawing sheet, FIGURE 5
Head of the field: kd (1/s)
Footnotes: ka: association rate constant, mean calculated over replicates / s.d. ka: standard deviation of association rate constant / kd: dissociation rate constant, mean calculated over replicates / s.d. kd: standard deviation of dissociation rate constant / KD: affinity constant, calculated as kd/ka / s.d. KD: standard deviation of affinity constant / n.d.: not determined
The patent's description of the figure: FIG. 5 represents in vitro surface plasmon resonance (SPR) binding experiments of conjugates against recombinant human folate receptor alpha protein, according to example 8.
First copying reader's note: Records are a mix of naked antibodies and their antibody-drug conjugates; the numbers 5, 10, 15, 20 at the left margin are line numbers, not table content.
Where the first naming reader finds the target: description_of_the_figure: binding experiments of conjugates against recombinant human folate receptor alpha protein

B1: F-LALA-VA-EXA (conjugate)
heavy: EVQLVESGGGVVQPGRSLRLSCSASGFTFSGYGLSWVRQAPGKGLEWVAMISSGGSYTYYADSVKGRFAISRDNAKNTLFLQMDSLRPEDTGVYFCARHGDDPAWFAYWGQGTPVTVSSASTKGPSVFPLAPSSKSTSGGTAALGCLVKDYFPEPVTVSWNSGALTSGVHTFPAVLQSSGLYSLSSVVTVPSSSLGTQTYICNVNHKPSNTKVDKKV[gap - human IgG1 Fc with changes]
light: DIQLTQSPSSLSASVGDRVTITCSVSSSISSNNLHWYQQKPGKAPKPWIYGTSNLASGVPSRFSGSGSGTDYTFTISSLQPEDIATYYCQQWSSYPYMYTFGQGTKVEIKRTVAAPSVFIFPPSDEQLKSGTASVVCLLNNFYPREAKVQWKVDNALQSGNSQESVTEQDSKDSTYSLSSTLTLSKADYEKHKVYACEVTHQGLSSPVTKSFNRGEC
modifications: N-methyl
recombinant human FRα binding (ELISA), in words [1]: binds equally | antitumor activity, SW-620 xenograft (SW-620 cancer model; IV once at 1, 3 and 6 mg/kg, NEG-VA-EXA 6 mg/kg (FIG. 10)): equally highly active at a dose of 1 mg/kg and above | antitumor activity, KB xenograft (KB cancer model): equally active at a dose of 3 mg/kg and above | efficacy, BT-474 (FRα neg) xenograft [2]: No efficacy was observed | Maximum Tolerated Dose in SCID mice (MTD) ([3]; Table 10): Above 200 mg/kg | tolerability in SCID mice ([3]; single intraperitoneal dose of 200 mg/kg, 21 days (FIG. 18)): well tolerated with no apparent signs of toxicity | Effective dose (ED) range based on in vivo xenografts experiments (SCID mice) (cancer xenograft models): 1 to 10 mg/kg | kd [4]: 0.0368 s⁻¹

B2: M-SORAV (conjugate)
heavy: QVQLVQSGAEVVKPGASVKISCKASGYTFTGYFMNWVKQSPGQSLEWIGRIHPYDGDTFYNQKFQGKATLTVDKSSNTAHMELLSLTSEDFAVYYCTRYDGSRAMDYWGQGTTVTVSSASTKGPSVFPLAPSSKSTSGGTAALGCLVKDYFPEPVTVSWNSGALTSGVHTFPAVLQSSGLYSLSSVVTVPSSSLGTQTYICNVNHKPSNTKVDKKV[gap - human IgG1 Fc]
light: DIVLTQSPLSLAVSLGQPAIISCKASQSVSFAGTSLMHWYHQKPGQQPRLLIYRASNLEAGVPDRFSGSGSKTDFTLTISPVEAEDAATYYCQQSREYPYTFGGGTKLEIKRTVAAPSVFIFPPSDEQLKSGTASVVCLLNNFYPREAKVQWKVDNALQSGNSQESVTEQDSKDSTYSLSSTLTLSKADYEKHKVYACEVTHQGLSSPVTKSFNRGEC
recombinant human FRα binding (ELISA), in words [1]: No significant loss of binding | antitumor activity, SW-620 xenograft (SW-620 cancer model; IV once at 5, 10 or 15 mg/kg (FIG. 9)): inactive even when dosed at 15 mg/kg | antitumor activity, KB xenograft (KB cancer model): equally active at a dose of 3 mg/kg and above | efficacy, BT-474 (FRα neg) xenograft [2]: No efficacy was observed | Maximum Tolerated Dose in SCID mice (MTD) ([3]; Table 10): Below 100 mg/kg | Preclinical rodent therapeutic index (MTD divided by ED) ([3]; Table 10): 10-100 | tolerability in SCID mice ([3]; single intraperitoneal dose of 100 m/kg (FIG. 18)): significant signs of toxicity | day at which mice were found dead or had to be euthanized ([3]; single intraperitoneal dose of 100 m/kg, all mice): 2 to 3 days | Effective dose (ED) range based on in vivo xenografts experiments (SCID mice) (cancer xenograft models): 1 to 10 mg/kg | kd [4]: 0.000327 s⁻¹
